Measured values taken from article PMC8257627.

Target: nucleosome core particle reconstituted with 207 bp DNA (NCP207), P0C0S8;P62807;Q71DI3;P62805
Assay: fluorescence anisotropy
Conditions: chain shown with the change

B1: PZP domain of AF10 (AF10PZP, aa 19–208), wild type, O54826 E179K (protein)
chain: KEMIGGCCVCSDERGWAENPLVYCDGHGCSVAVHQACYGIVQVPTGPWFCRKCESQERAARVRCELCPHKDGALKRTDNGGWAHVVCALYIPEVQFANVSTMEPIVLQSVPHDRYNKTCYICDEQGRESKAATGACMTCNKHGCRQAFHVTCAQFAGLLCKEEGNGADNVQYCGYCKYHFSKLKKSKRGS
  Kd: 14 µM
